## Measured affinities in a library of Ab-14 light chain variants

From the AlphaSeq antibody data of Engelhart et al. 2022 (doi:10.1038/s41597-022-01779-4), copy in the FLAb collection.

Binding partner: SARS-CoV-2 spike HR2 peptide, sequence PDVDLGDISGINAS.

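The parent was found by panning a naive human phage display library on the peptide. Library AAYL50 holds single substitutions and randomly drawn double and triple substitutions in the CDRs. The assay is AlphaSeq: two haploid yeast populations carry antibody and antigen on their surface. Pairs that bind mate more often; barcode pairs of the diploids are counted by sequencing. Each replicate has its own calibration line, from reference interactions of the BCL2 family. Each pool was mated in three replicate cultures.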

Each scFv is VH, three GGGGS repeats, VL, as in the parent Ab-14, and differs from it in the CDRs of the light chain only.
VH: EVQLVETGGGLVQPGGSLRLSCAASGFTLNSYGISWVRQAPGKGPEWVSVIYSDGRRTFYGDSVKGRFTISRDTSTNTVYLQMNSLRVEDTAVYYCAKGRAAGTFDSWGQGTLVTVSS
VL: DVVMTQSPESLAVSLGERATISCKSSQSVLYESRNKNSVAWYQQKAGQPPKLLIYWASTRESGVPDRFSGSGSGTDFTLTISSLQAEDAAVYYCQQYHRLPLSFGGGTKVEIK

Substitutions are numbered in sequence along the VL above, starting at 1 (not Kabat).
Each Kd is an estimate from the mating assay, the geometric mean of the replicates in which the pair was seen; lower is stronger.
Where no diploid with the target was found in any replicate, the entry reads "nd": below detection, most likely a poor binder, though not proof of it.

With V29E/P101V/S103A the result was nd (0 of 3 replicates; controls 0 of 9).
With S33P/V39R/A57Q the result was nd (0 of 3 replicates; controls 0 of 9).
With K24C/N37M the result was 6.7 µM (2 of 3 replicates; controls 0 of 9).
With K36A/W56K/T59N the result was 5.6 nM (3 of 3 replicates; controls 0 of 9).
With A40R/S62Y/Q96T the result was nd (0 of 3 replicates; controls 0 of 9).
With R60T/R99H/L102A the result was 650 nM (1 of 3 replicates; controls 0 of 9).
With N35A/Q95H/Y97I the result was 4.4 µM (1 of 3 replicates; controls 4 of 9).
With A40T/H98C the result was 11 µM (1 of 3 replicates; controls 0 of 9).
With Y31P/K36S the result was 4.8 nM (3 of 3 replicates; controls 3 of 9).
With E32H/V39S/R60E the result was nd (0 of 3 replicates; controls 0 of 9).
With E32H/W56V/L100K the result was 4.2 µM (2 of 3 replicates; controls 1 of 9).
With S25L/Y31K/R99V the result was 590 pM (3 of 3 replicates; controls 4 of 9).
With N35G/S62Y/S103E the result was 17 nM (3 of 3 replicates; controls 1 of 9).
With S25G/E32D/N37K the result was 28 nM (3 of 3 replicates; controls 1 of 9).
With E32C/E61T/Y97N the result was 250 µM (1 of 3 replicates; controls 4 of 9).
With Q27T/S28Q/S33C the result was 98 µM (1 of 3 replicates; controls 3 of 9).
With K24H/S28Q the result was 9.0 µM (1 of 3 replicates; controls 3 of 9).
With Y31M/S62Q/L102A the result was 43 nM (3 of 3 replicates; controls 0 of 9).
With L30E/Q96F/L100S the result was 51 nM (3 of 3 replicates; controls 0 of 9).
With S33T/N35I/H98I the result was 6.6 µM (1 of 3 replicates; controls 0 of 9).
With S26T/V29K/L100N the result was 30 µM (1 of 3 replicates; controls 3 of 9).
With S38C/A57D/H98V the result was 53 nM (3 of 3 replicates; controls 3 of 9).
With L30Q/V39W/Y97C the result was nd (0 of 3 replicates; controls 0 of 9).
With S26P/E32W/S62P the result was 8.7 nM (3 of 3 replicates; controls 5 of 9).
With E32W/Q95C the result was 15 µM (1 of 3 replicates; controls 1 of 9).
With V39T/S58E/E61P the result was 31 µM (2 of 3 replicates; controls 4 of 9).
With S33C/Q95A the result was 5.1 µM (2 of 3 replicates; controls 2 of 9).
With V29H/K36E/Y97R the result was nd (0 of 3 replicates; controls 0 of 9).
With V39Y/T59W/Q95Y the result was nd (0 of 3 replicates; controls 0 of 9).
With R34T/A57K/S58P the result was nd (0 of 3 replicates; controls 3 of 9).
With E32M/S103Q the result was 190 nM (3 of 3 replicates; controls 1 of 9).
With L30G/T59H/H98G the result was 3.8 nM (3 of 3 replicates; controls 0 of 9).
With S25K/S26G/V39F the result was nd (0 of 3 replicates; controls 2 of 9).
With N35S/Q95H/Q96G the result was 2.7 µM (1 of 3 replicates; controls 1 of 9).
With K36Q/R99F/P101D the result was nd (0 of 3 replicates; controls 0 of 9).
With S26M/V39Y/S103M the result was nd (0 of 3 replicates; controls 0 of 9).
With N37G/T59D the result was 95 nM (3 of 3 replicates; controls 1 of 9).
With N37P/W56V/H98N the result was nd (0 of 3 replicates; controls 1 of 9).
With Y31C/R34I/T59W the result was 260 nM (1 of 3 replicates; controls 0 of 9).
With A40V/S58N/S62V the result was nd (0 of 3 replicates; controls 1 of 9).
With S26C/S33T/E61G the result was nd (0 of 3 replicates; controls 0 of 9).
With Y31G/T59D/L100N the result was 49 nM (3 of 3 replicates; controls 2 of 9).
With K24D/V29A/R34Y the result was 240 nM (3 of 3 replicates; controls 7 of 9).
With A57S/R60Q/H98Y the result was 850 nM (1 of 3 replicates; controls 1 of 9).
With R60Y/Y97A/S103C the result was nd (0 of 3 replicates; controls 0 of 9).
With Q27M/L30D/S58F the result was 28 nM (3 of 3 replicates; controls 0 of 9).
With S26P/E61S/S103H the result was 72 nM (3 of 3 replicates; controls 5 of 9).
With K24Q/S25R/Q96P the result was 6.5 µM (3 of 3 replicates; controls 3 of 9).
With K24T/S38Q the result was 2.3 µM (3 of 3 replicates; controls 0 of 9).
With S28R/A40H/P101H the result was 9.6 µM (1 of 3 replicates; controls 6 of 9).

The closing 3 entries, repeated:

changes,apparent Kd,replicates with signal,control signals
K24Q/S25R/Q96P,6.5 µM,3 of 3,3 of 9
K24T/S38Q,2.3 µM,3 of 3,0 of 9
S28R/A40H/P101H,9.6 µM,1 of 3,6 of 9

Nonspecific signal, from three strains lacking the peptide, appeared in 18% of pairings of library AAYL50, centred on 15 µM (5% of these signals below 970 nM); values are not corrected for it. The control count says in how many pairings with the empty strains this scFv gave a signal.
Parent in this assay: reference entry 4.4 nM, copy in this library 48 nM.